From patent US11191771B2, “Combinations of PBD-based antibody drug conjugates with FLT3 inhibitors” (Seagen Inc., priority 2016, dated 2021) come the findings set out here.

Each structure is given as a SMILES string.

For the experiment, the system named is FLT3/ITD MV4-11 xenografts. The experiment is described as follows: Survival of FLT3/ITD MV4-11 xenografts. The class given is in vivo. To be noted: MV4-11 s.c. in SCID mice; quizartinib 0.4 mg/kg daily for 21 days by mouth; ADC 10 mcg/kg once i.p.; FIG. 5. As for the experimental part: Five million MV4-11 cells were implanted subcutaneously in SCID mice. Tumor growth was monitored throughout the course of the study with bilateral vernier caliper measurements, and mean tumor volumes were calculated using the equation (0.5×[length×width^2]).
Mice with advanced tumor burden were sacrificed upon reaching tumor volumes of greater than 400 mm^3 or showing symptoms of hind limb paralysis, cranial swelling, and/or moribundity.

As to `CC(C)(C)c1cc(NC(=O)Nc2ccc(-c3cn4c(n3)sc3cc(OCCN5CCOCC5)ccc34)cc2)no1` [quizartinib, 1-(5-(tert-Butyl)isoxazol-3-yl)-3-(4-(7-(2-morpholinoethoxy)benzo[d]imidazo[2,1-b]thiazol-2-yl)phenyl)urea, reference compound], the “effect on progression / survival” value is listed as “induced delay of progression”.
